{"source": "patent US12453779B2", "about": "“Chemoselective thiol-conjugation with alkene or alkyne-phosphonothiolates and -phosphonates” (FORSCHUNGSVERBUND BERLIN E.V., priority 2018, dated 2025)", "tested_on": "Cetuximab", "assay": "Cetuximab conjugation, anti-biotin Western blot", "conditions": "reduced antibody, pH 7.4 to 8.5", "from_the_text": "Finally, the inventors applied this new cysteine-selective reaction sequence for the conjugation of IgG-antibodies (scheme 11). The modification strategy relies on a two-step reduction-alkylation approach, previously applied to maleimide conjugation (S. O. Doronina, B. E. Toki, M. Y. Torgov, B. A. Mendelsohn, C. G. Cerveny, D. F. Chace, R. L. DeBlanc, R. P. Gearing, T. D. Bovee, C. B. Siegall, J. A. Francisco, A. F. Wahl, D. L. Meyer, P. D. Senter, Nat Biotech 2003, 21, 778-784). In the first step the interchain disulphide bridges that hold the antibody together are reduced upon treatment with dithiothreitol (DTT). The free thiols can then react with the phosphonothiolates in a thiol addition reaction. First experiments were conducted with Cetuximab, a monocolonal IgG1 antibody against human epidermal growth factor.\nAs a proof of principle the antibody was modified with biotin alkene-derivative 4 and analysed by SDS-PAGE, followed by an anti-biotin western blotting.\n1.25 μl of a 100 μM solution of Cetuximab antibody (in PBS) was mixed with 10 μl borate containing PBS (50 mM borate, pH 8.0) and 1.25 μl of a DTT solution (100 mM DTT in same borate buffer, pH 8.0). Control samples were prepared similarly, without adding DTT. These mixtures were incubated on a thermo-shaker for 30 min at 37° C. […]"}
{"smiles": "C#CP(=O)(OCC)SCCNC(=O)CCCC[C@@H]1SC[C@@H]2NC(=O)N[C@@H]21", "note": "(stereo partly shown)", "values": [{"measurement": "labelling of the antibody in dependence of pH", "result": "more labelling of the antibody is obtained with the alkyne-phosphonothiolate with increasing pH"}]}
